Reference: ChEMBL document CHEMBL4665800, “Biased Agonism at Nociceptin/Orphanin FQ Receptors: A Structure Activity Study on N/OFQ(1-13)-NH” (J Med Chem, 2020)
pEC50: −log10 of the molar value.

Chains of the proteins cited; added tags and fusions are not shown.
UniProt P35372, whole entry: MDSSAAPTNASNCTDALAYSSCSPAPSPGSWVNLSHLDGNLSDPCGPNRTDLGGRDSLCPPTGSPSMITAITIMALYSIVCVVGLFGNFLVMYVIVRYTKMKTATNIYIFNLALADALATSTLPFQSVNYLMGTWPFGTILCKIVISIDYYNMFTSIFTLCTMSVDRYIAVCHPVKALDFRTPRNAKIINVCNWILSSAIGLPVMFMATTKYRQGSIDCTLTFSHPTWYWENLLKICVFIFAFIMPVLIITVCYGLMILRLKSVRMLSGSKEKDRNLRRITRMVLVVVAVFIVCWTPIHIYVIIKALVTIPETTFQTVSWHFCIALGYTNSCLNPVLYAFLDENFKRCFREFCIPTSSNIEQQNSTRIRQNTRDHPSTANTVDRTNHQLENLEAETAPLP

How the values were obtained:
[1] = molecular target: T1, Mu-type opioid receptor (Homo sapiens, UniProt P35372); test: Agonist activity at MOP (unknown origin) expressed in SH-SY5Y cell membranes co-expressing beta-arrestin2-RGFP protein assessed as induction of beta-arrestin2 activation incubated for 15 mins by BRET assay; type: cell-based
[2] = molecular target: T1, Mu-type opioid receptor; test: Agonist activity at MOP (unknown origin) expressed in SH-SY5Y cell membranes co-expressing Gbeta1-RGFP protein assessed as induction of G protein activation incubated for 15 mins by BRET assay; type: cell-based

C[C@@H](NC(=O)[C@@H](N)Cc1ccc(O)cc1)C(=O)N[C@@H](Cc1ccccc1)C(=O)NCC(=O)N[C@@H](Cc1ccc(O)cc1)C(=O)N1CCC[C@H]1C(=O)N[C@@H](CO)C(N)=O [DERMORPHIN]
pEC50 [1]: 7.09 | pEC50 [2]: 6.89
